The values that follow come from ChEMBL document CHEMBL1147033, “Novel selective androgen receptor modulators: SAR studies on 6-bisalkylamino-2-quinolinones” (Bioorg Med Chem Lett, 2007).

Amino acid sequences for entries named in this document (tags omitted). A change or cut given only in a name is not applied to a line headed by its entry.
UniProt P10275: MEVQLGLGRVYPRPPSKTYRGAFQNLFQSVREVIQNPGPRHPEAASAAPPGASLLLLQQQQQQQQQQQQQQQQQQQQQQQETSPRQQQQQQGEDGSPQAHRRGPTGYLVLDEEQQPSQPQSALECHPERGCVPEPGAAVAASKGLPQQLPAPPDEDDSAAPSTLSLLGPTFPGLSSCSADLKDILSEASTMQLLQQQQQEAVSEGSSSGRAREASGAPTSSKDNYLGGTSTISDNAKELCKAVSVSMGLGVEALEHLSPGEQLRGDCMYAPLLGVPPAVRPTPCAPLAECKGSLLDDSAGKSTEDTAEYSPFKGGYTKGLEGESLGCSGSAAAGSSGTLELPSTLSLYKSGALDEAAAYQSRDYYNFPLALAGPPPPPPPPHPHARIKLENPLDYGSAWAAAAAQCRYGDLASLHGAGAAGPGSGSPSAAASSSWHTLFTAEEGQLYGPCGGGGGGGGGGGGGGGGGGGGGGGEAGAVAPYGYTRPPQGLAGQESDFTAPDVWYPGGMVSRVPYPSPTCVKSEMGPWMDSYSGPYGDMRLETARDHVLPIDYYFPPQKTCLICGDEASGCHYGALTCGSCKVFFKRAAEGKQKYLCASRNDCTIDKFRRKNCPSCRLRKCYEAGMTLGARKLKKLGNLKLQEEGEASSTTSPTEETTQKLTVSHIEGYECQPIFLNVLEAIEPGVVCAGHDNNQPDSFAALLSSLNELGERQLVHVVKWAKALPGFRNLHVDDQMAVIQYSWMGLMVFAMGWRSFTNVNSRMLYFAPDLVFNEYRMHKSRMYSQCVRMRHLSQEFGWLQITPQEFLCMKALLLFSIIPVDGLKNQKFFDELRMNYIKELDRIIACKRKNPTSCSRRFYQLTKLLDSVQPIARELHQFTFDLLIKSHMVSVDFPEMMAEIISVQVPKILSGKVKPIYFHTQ

Test [1] deals with T1, Androgen receptor (Homo sapiens, UniProt P10275).
Test [2] has as its target T1, Androgen receptor. The source holds these as a separate data set.
Test [3] concerns the target T1, Androgen receptor. This is another data set of the same source.

`Cc1cc(=O)[nH]c2ccc(N(CC(C)C)CC(F)(F)F)cc12` came in with an inhibition constant (Ki) on Androgen receptor [1] of 12 nM. In addition, the EC50 at Androgen receptor [2] was determined as 3.2 nM. This compound had a half-maximal inhibitory concentration (IC50) on Androgen receptor [3] above 10000 nM.
For `CCCN(CC(F)(F)F)c1ccc2[nH]c(=O)cc(C(F)(F)F)c2c1`, the inhibition constant (Ki) at Androgen receptor [1] was found to be 12 nM. For the same compound, on Androgen receptor [2], it took 1.3 nM to reach a half-maximal effect (EC50). The same compound returned a concentration for half-maximal inhibition (IC50) against Androgen receptor [3] above 10000 nM.
On Androgen receptor [1], `O=c1cc(C(F)(F)F)c2cc(N(CC(F)(F)F)CC(F)(F)C(F)(F)F)ccc2[nH]1` had an inhibition constant (Ki) of 31 nM. Besides, the midpoint of the response at Androgen receptor [2], the EC50, lay at 2.3 nM. Moreover, the half-inhibitory concentration (IC50) at Androgen receptor [3] is above 10000 nM.
At Androgen receptor [2], `Cc1cc(=O)[nH]c2ccc(N(CC(F)(F)F)CC(F)(F)F)cc12` came in with a half-maximal effective concentration (EC50) of 0.8 nM. For the same compound, the IC50 against Androgen receptor [3] was above 10000 nM.
Compound `CCc1cc(=O)[nH]c2ccc(N(CC(F)(F)F)CC(F)(F)F)cc12` showed an inhibitory constant (Ki) at Androgen receptor [1] of 5.4 nM. For the same compound, at Androgen receptor [2], it took 12 nM to reach a half-maximal effect (EC50). This compound had a half-maximal inhibitory concentration (IC50) on Androgen receptor [3] above 10000 nM.
With `O=c1ccc2cc(N(CC(F)(F)F)CC(F)(F)F)ccc2[nH]1`, the Ki on Androgen receptor [1] was 24 nM. In addition, the EC50 at Androgen receptor [2] is 57 nM. This compound returned an IC50 against Androgen receptor [3] of 1 nM.
